# Measured values from patent US10144715B2, “Piperazine derivatives as liver X receptor modulators” (priority 2014, dated 2018).
# Sequences of proteins named here, by UniProt entry; tags and fusion partners are left off. Residues count along the entry.
# UniProt Q13133, 209-447: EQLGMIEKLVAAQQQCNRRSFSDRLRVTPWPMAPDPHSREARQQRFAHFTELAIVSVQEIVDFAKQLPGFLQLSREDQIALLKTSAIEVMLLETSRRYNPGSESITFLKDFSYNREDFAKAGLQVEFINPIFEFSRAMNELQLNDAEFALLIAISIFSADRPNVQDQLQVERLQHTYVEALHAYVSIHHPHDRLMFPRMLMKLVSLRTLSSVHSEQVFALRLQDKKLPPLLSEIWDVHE
# UniProt P55055, 222-460 limits assumed: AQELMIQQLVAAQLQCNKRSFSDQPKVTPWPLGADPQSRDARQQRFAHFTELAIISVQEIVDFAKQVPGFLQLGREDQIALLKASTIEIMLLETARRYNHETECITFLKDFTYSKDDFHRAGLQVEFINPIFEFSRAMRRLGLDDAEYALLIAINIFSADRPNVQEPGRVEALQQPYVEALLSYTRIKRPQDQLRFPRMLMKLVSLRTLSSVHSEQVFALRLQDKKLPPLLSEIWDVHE
# Where two headings read alike, the source gives them in different places.
# Legend:
# LXR α LBD protein [1] = target: T1, LXR α LBD protein (Homo sapiens (Human), UniProt Q13133); assay: LXR α radioligand binding assay (SPA, competition with [3H]TO901317); conditions: read-out: LXRα Binding Ki
# [2] = target: T2, Gal4 DNA binding domain fused to the LBD of LXRα in HEK293 cells (Homo sapiens (Human), UniProt Q13133); assay: LXR luciferase transcriptional reporter gene assay, agonist mode, LXRα; assay type: cell-based; conditions: for Cell LXRα efficacy: agonist mode
# [3] = target: T3, Gal4 DNA binding domain fused to the LBD of LXRβ in HEK293 cells (Homo sapiens (Human), UniProt P55055); assay: cell-based
# LXR β LBD protein [4] = target: T4, LXR β LBD protein (Homo sapiens (Human), UniProt P55055); assay: biochemical; assay type: biochemical; conditions: for EC50: read-out: FRET LXRβ EC50
# [5] = target: T3, Gal4 DNA binding domain fused to the LBD of LXRβ in HEK293 cells; assay: cell-based; remark: listed apart in the source
# LXR β LBD protein [6] = target: T4, LXR β LBD protein; conditions: read-out: FRET LXRβ IC50; antagonist mode, 250 nM T0901317, coactivator recruitment TR-FRET
# LXR β LBD protein [7] = target: T4, LXR β LBD protein; conditions: Biological Test Example 1; read-out: LXRβ Binding Ki
# LXR α LBD protein [8] = target: T1, LXR α LBD protein; assay: Human LXRα coactivator recruitment FRET assay, agonist mode; assay type: biochemical
# [9] = target: T2, Gal4 DNA binding domain fused to the LBD of LXRα in HEK293 cells; assay: LXR luciferase transcriptional reporter gene assay, antagonist mode (200 nM T0901317), LXRα; assay type: cell-based; conditions: read-out: Cell LXRα IC50
# LXR α LBD protein [10] = target: T1, LXR α LBD protein; conditions: read-out: FRET LXRα IC50; antagonist mode, 250 nM T0901317, coactivator recruitment TR-FRET
# [11] = Biological Test Example 3, agonist mode
smiles,measurement,setting,value
"CC1(C)CCC(O)(CN2CCN(c3cccc(S(C)(=O)=O)c3)C[C@H]2c2ccccc2)CC1 [53-2, (R)-4,4-dimethyl-1-((4-(3-(methylsulfonyl)phenyl)-2-phenylpiperazin-1-yl)methyl)cyclohexan-1-ol]",Ki,LXR α LBD protein [1]; Biological Test Example 1,1.76 µM
same,EC50,[2]; read-out: Cell LXRα EC50,6.74 µM
"CC(C)[C@@H]1CN(c2ccc(F)c(S(C)(=O)=O)c2)CCN1C(=O)OCC(F)(F)F [5-4, 2,2,2-trifluoroethyl (R)-4-(4-fluoro-3-(methylsulfonyl)phenyl)-2-isopropylpiperazine-1-carboxylate]",Ki,LXR α LBD protein [1],2.44 µM
same,EC50,[2],4.91 µM
same,Cell LXRα efficacy,[2],40%
"CC(C)[C@@H]1CN(c2ccc(F)c(S(C)(=O)=O)c2)CCN1c1nccc(OCC(F)(F)F)n1 [44-3, (R)-2-(4-(4-fluoro-3-(methylsulfonyl)phenyl)-2-isopropylpiperazin-1-yl)-4-(2,2,2-trifluoroethoxy)pyrimidine]",Ki,LXR α LBD protein [1],0.809 µM
"CC1(C)CCC(O)(CN2CCN(c3cccc(S(C)(=O)=O)c3)C[C@@H]2c2ccccc2)CC1 [Cpd No 53-1, (S)-4,4-dimethyl-1-((4-(3-(methylsulfonyl)phenyl)-2-phenylpiperazin-1-yl)methyl)cyclohexan-1-ol]",Ki,LXR α LBD protein [1]; Biological Test Example 1,0.971 µM
same,EC50,[2]; read-out: Cell LXRα EC50,3.03 µM
"CC(C)[C@@H]1CN(c2cccc(S(C)(=O)=O)c2)CCN1c1ncc(Cl)cn1 [Cpd No 7-4, (R)-5-chloro-2-(2-isopropyl-4-(3-(methylsulfonyl)phenyl)piperazin-1-yl)pyrimidine]",EC50,[3],0.185 µM
same,Cell LXRβ efficacy,[3]; agonist mode,46%
same,FRET LXRβ efficacy,LXR β LBD protein [4]; agonist mode,84%
same,EC50,LXR β LBD protein [4]; agonist mode,0.017 µM
same,IC50,[5],6.58 µM
"CC(C)[C@@H]1CN(c2cccc(S(C)(=O)=O)c2)CCN1c1ncccn1 [7-2, (R)-2-(2-isopropyl-4-(3-(methylsulfonyl)phenyl)piperazin-1-yl)pyrimidine]",EC50,[3],> 20 µM
same,FRET LXRβ efficacy,LXR β LBD protein [4]; agonist mode,31%
same,EC50,LXR β LBD protein [4]; agonist mode,0.123 µM
same,IC50,[5],1.62 µM
"COC(=O)c1ccc(N2CCN(Cc3ccc(C(F)(F)F)nc3)C(c3ccccc3)C2)cc1S(C)(=O)=O (stereo not shown) [46-59, methyl 2-(methylsulfonyl)-4-(3-phenyl-4-((6-(trifluoromethyl)pyridin-3-yl)methyl)piperazin-1-yl)benzoate]",FRET LXRβ efficacy,LXR β LBD protein [4]; agonist mode,70%
same,EC50,LXR β LBD protein [4]; agonist mode,3.1 µM
same,IC50,LXR β LBD protein [6],> 50 µM
"CC(C)[C@H]1CN(c2ccc(C#N)c(S(C)(=O)=O)c2)CCN1C[C@H]1CC[C@@H](C(F)(F)F)CC1 [Cpd No 50-1, 4-((S)-3-isopropyl-4-(((1s,4R)-4-(trifluoromethyl)cyclohexyl)methyl)piperazin-1-yl)-2-(methylsulfonyl)benzonitrile]",Ki,LXR β LBD protein [7],0.006 µM
same,EC50,"[3]; Biological Test Example 2, agonist mode, read-out: Cell LXRβ EC50",0.076 µM
"CS(=O)(=O)c1cccc(N2CCN(Cc3ccc(C(F)(F)F)cn3)[C@H](c3ccccc3)C2)c1 [46-63, (R)-4-(3-(methylsulfonyl)phenyl)-2-phenyl-1-((5-(trifluoromethyl)pyridin-2-yl)methyl)piperazine]",EC50,LXR α LBD protein [8],12.4 µM
same,FRET LXRα efficacy,LXR α LBD protein [8],30%
same,EC50,[2]; read-out: Cell LXRα EC50,> 20 µM
"CS(=O)(=O)c1cccc(N2CCN(CC3CCN(CC(F)(F)F)CC3)[C@@H](c3ccccc3)C2)c1 (single isomer, unassigned) [48-52]",EC50,[3],0.129 µM
same,Cell LXRβ efficacy,"[3]; Biological Test Example 2, agonist mode",13%
same,FRET LXRβ efficacy,LXR β LBD protein [4]; [11],30%
same,EC50,LXR β LBD protein [4]; [11],0.068 µM
same,IC50,[5],0.843 µM
"CC(C)[C@@H]1CN(c2cccc(S(C)(=O)=O)c2)CCN1C(=O)OCC(C)(C)C [5-6, neopentyl (R)-2-isopropyl-4-(3-(methylsulfonyl)phenyl)piperazine-1-carboxylate]",EC50,[3],0.392 µM
same,Cell LXRβ efficacy,[3]; agonist mode,39%
same,FRET LXRβ efficacy,LXR β LBD protein [4]; agonist mode,58%
same,EC50,LXR β LBD protein [4]; agonist mode,0.014 µM
same,IC50,[5],2.96 µM
"CC(C)[C@@H]1CN(c2ccc(F)c(S(C)(=O)=O)c2)CCN1C(=O)OC1CC(F)(F)C1(F)F (stereo partly drawn) [Cpd No 5-1, 2,2,3,3-tetrafluorocyclobutyl (2R)-4-(4-fluoro-3-(methylsulfonyl)phenyl)-2-isopropylpiperazine-1-carboxylate]",Ki,LXR α LBD protein [1],0.483 µM
same,EC50,[2],1.05 µM
same,Cell LXRα efficacy,[2],79%
"CC(C)[C@@H]1CN(c2ccc(F)c(S(C)(=O)=O)c2)CCN1c1ncc(C(=O)N(C)C)c(C(F)(F)F)n1 [Cpd No 17-1, (R)-2-(4-(4-fluoro-3-(methylsulfonyl)phenyl)-2-isopropylpiperazin-1-yl)-N,N-dimethyl-4-(trifluoromethyl)pyrimidine-5-carboxamide]",Ki,LXR α LBD protein [1],1.11 µM
same,EC50,[2]; read-out: Cell LXRα EC50,6.35 µM
same,IC50,[9],2.35 µM
"Cc1nc(C(F)(F)F)ccc1CN1CCN(c2cccc(S(C)(=O)=O)c2)CC1c1ccccc1 (stereo not shown) [46-47, 1-((2-methyl-6-(trifluoromethyl)pyridin-3-yl)methyl)-4-(3-(methylsulfonyl)phenyl)-2-phenylpiperazine]",EC50,LXR α LBD protein [8],4.52 µM
same,FRET LXRβ efficacy,LXR β LBD protein [4]; agonist mode,54%
same,EC50,LXR β LBD protein [4]; agonist mode,0.817 µM
same,IC50,LXR α LBD protein [10],> 50 µM
same,IC50,LXR β LBD protein [6],> 50 µM
"CS(=O)(=O)c1cccc(N2CCN(Cc3ccc(C(F)(F)F)o3)[C@@H](c3ccccc3)C2)c1 [46-66, (S)-4-(3-(methylsulfonyl)phenyl)-2-phenyl-1-((5-(trifluoromethyl)furan-2-yl)methyl)piperazine]",Ki,LXR α LBD protein [1],1.41 µM
same,EC50,LXR α LBD protein [8],1.66 µM
same,FRET LXRα efficacy,LXR α LBD protein [8],20%
same,EC50,[2]; read-out: Cell LXRα EC50,4.58 µM
"CS(=O)(=O)c1cccc(N2CCN(Cc3ccc(C(F)(F)F)cn3)[C@@H](c3ccccc3)C2)c1 [46-64, (S)-4-(3-(methylsulfonyl)phenyl)-2-phenyl-1-((5-(trifluoromethyl)pyridin-2-yl)methyl)piperazine]",Ki,LXR α LBD protein [1],> 3.33 µM
same,EC50,LXR α LBD protein [8],10.4 µM
same,FRET LXRα efficacy,LXR α LBD protein [8],23%
same,EC50,[2]; read-out: Cell LXRα EC50,> 20 µM
"CC(C)[C@@H]1CN(c2cccc(S(C)(=O)=O)c2)CCN1c1ccc(C(F)(F)F)cn1 [Cpd No 7-35, (R)-2-isopropyl-4-(3-(methylsulfonyl)phenyl)-1-(5-(trifluoromethyl)pyridin-2-yl)piperazine]",EC50,[3],0.039 µM
same,Cell LXRβ efficacy,[3]; agonist mode,96%
same,FRET LXRβ efficacy,LXR β LBD protein [4]; agonist mode,171%
same,EC50,LXR β LBD protein [4]; agonist mode,0.004 µM
same,IC50,[5],> 10 µM
"CC(C)[C@@H]1CN(c2cccc(S(C)(=O)=O)c2)CCN1c1ccnc(C(F)(F)F)n1 [7-50, (R)-4-(2-isopropyl-4-(3-(methylsulfonyl)phenyl)piperazin-1-yl)-2-(trifluoromethyl)pyrimidine]",EC50,[3],0.257 µM
same,Cell LXRβ efficacy,[3]; agonist mode,37%
same,FRET LXRβ efficacy,LXR β LBD protein [4]; agonist mode,84%
same,EC50,LXR β LBD protein [4]; agonist mode,0.019 µM
same,IC50,[5],3.74 µM
"CS(=O)(=O)c1cc(N2CCN(Cc3ccc(C(F)(F)F)nc3)C(c3ccccc3)C2)ccc1CO (stereo not shown) [Cpd No 47-1, (2-(methylsulfonyl)-4-(3-phenyl-4-((6-(trifluoromethyl)pyridin-3-yl)methyl)piperazin-1-yl)phenyl)methanol]",EC50,[3],5.14 µM
same,Cell LXRβ efficacy,[3]; agonist mode,39%
same,FRET LXRβ efficacy,LXR β LBD protein [4]; agonist mode,63%
same,EC50,LXR β LBD protein [4]; agonist mode,0.259 µM
same,IC50,LXR β LBD protein [6],> 50 µM
"Cc1cc(CN2CCN(c3cccc(S(C)(=O)=O)c3)CC2c2ccccc2)cnc1C(F)(F)F (stereo not shown) [46-48, 1-((5-methyl-6-(trifluoromethyl)pyridin-3-yl)methyl)-4-(3-(methylsulfonyl)phenyl)-2-phenylpiperazine]",EC50,LXR α LBD protein [8],3.01 µM
same,EC50,[3],0.957 µM
same,Cell LXRβ efficacy,[3]; agonist mode,34%
same,FRET LXRβ efficacy,LXR β LBD protein [4]; agonist mode,55%
same,EC50,LXR β LBD protein [4]; agonist mode,0.443 µM
same,IC50,LXR α LBD protein [10],> 50 µM
same,IC50,LXR β LBD protein [6],> 50 µM
"CS(=O)(=O)c1ccc(F)c(N2CCN(Cc3ccc(C(F)(F)F)nc3)C(c3ccccc3)C2)c1 (stereo not shown) [46-50, 4-(2-fluoro-5-(methylsulfonyl)phenyl)-2-phenyl-1-((6-(trifluoromethyl)pyridin-3-yl)methyl)piperazine]",FRET LXRβ efficacy,LXR β LBD protein [4]; agonist mode,67%
same,EC50,LXR β LBD protein [4]; agonist mode,1.91 µM
same,IC50,LXR β LBD protein [6],> 50 µM
